Results reported in US20240425966A1, “GAS-ASSISTED COCRYSTAL DE-SUBLIMATION” (THE REGENTS OF THE UNIVERSITY OF MICHIGAN, priority 2021, published 2024).

Experiments:
[1] = Thermogravimetric analysis (TGA), enthalpy of sublimation from Arrhenius plot of mass loss rate; assay type: physicochemical; settings: for Sublimation ΔHsub: 25-400° C., 10° C. per minute, slope of log mass loss rate versus 1000/T; for Sublimation Tlow: lower temperature of sublimation range; for Sublimation Thigh: upper temperature of sublimation range
Experimental: (§1) To determine optimal process temperature, differential scanning calorimetry (DSC) and thermogravimetric analysis (TGA) were performed on the pure components, as well as on the cocrystal, shown in FIG. 2. A TA instruments DSC Q200 was used with a 40-400° C. heating range and 10° C. per minute heating rate. Only initial heating curves were collected and analyzed, without a cooling and secondary heating step. The initial melting peak temperature and enthalpy of melting values for each sample was determined using Universal Analysis software from TA instruments. A TA Instruments TGA Q500 was used with a 25-400° C. heating range and a 10° C. per minute heating rate. Powder was placed into a 5 mm diameter aluminum sample pan centered in a platinum hang pan. Enthalpies of sublimation were determined by plotting the logarithm of mass loss rate (−dm/dt) versus inverse temperature (1000/T).

[2] = SEM
[3] = Differential scanning calorimetry (DSC), enthalpy of melting; assay type: physicochemical; settings: 40-400° C., 10° C. per minute, initial heating curve
Experimental: as §1

crystallite size ([2]; bulk synthesized and dried (solvent evaporation) material) [μm] | particle size ([2]; gas-processed (de-sublimated) material) | Substance | Sublimation ΔHsub [1] [kcal/mol] | Sublimation Tlow [1] [°C] | Sublimation Thigh [1] [°C] | Melting ΔHmelt [3] [kcal/mol]
> 100 | below 10 μm | carbamazepine-succinic acid [CBZ-SUC] | 67.57 | 200 | 230 | 22.6
– | – | indomethacin-saccharine [IND-SAC] | 24.47 | 200 | 280 | 17.6
